Remaining binding data for one compound are collected here from EP2505659A1, “Methods for the identification of dioxygenase interacting molecules and for the purification of dioxygenase proteins” (CELLZOME AG, priority 2011, dated 2012).

Holding throughout (test): Bead competition binding assay, immobilized compound A, K-562, HL-60 and Jurkat nuclear lysates
Set-up in all cases: capturing and identification of dioxygenases from nuclear protein extracts; endogenous in cells

The target of one test is T1, ALKBH3 (Homo sapiens, UniProt Q96Q83).
T1 sequence (Q96Q83 1-286): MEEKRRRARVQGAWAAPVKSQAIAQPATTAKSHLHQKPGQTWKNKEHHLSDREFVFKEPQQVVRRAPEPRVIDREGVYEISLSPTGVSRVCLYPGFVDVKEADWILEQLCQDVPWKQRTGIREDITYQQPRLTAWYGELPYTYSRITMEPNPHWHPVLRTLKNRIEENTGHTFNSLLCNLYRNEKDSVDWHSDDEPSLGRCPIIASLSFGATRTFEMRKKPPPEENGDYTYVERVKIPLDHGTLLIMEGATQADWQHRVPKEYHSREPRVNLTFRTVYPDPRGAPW
As to conditions: 100 µM free compound A, K-562 nuclear lysate, read-out: Fold change versus DMSO control. The text has this: (§1) K562 cells were also purchased from DSMZ (Braunschweig, Germany).
(§2) Table 5: Peptide elution off the LC system
(§3) Seventeen different dioxygenases were identified.

A further test has as its target T2, LEPREL2 (Homo sapiens, UniProt Q8IVL6).
T2 sequence (Q8IVL6 21-736): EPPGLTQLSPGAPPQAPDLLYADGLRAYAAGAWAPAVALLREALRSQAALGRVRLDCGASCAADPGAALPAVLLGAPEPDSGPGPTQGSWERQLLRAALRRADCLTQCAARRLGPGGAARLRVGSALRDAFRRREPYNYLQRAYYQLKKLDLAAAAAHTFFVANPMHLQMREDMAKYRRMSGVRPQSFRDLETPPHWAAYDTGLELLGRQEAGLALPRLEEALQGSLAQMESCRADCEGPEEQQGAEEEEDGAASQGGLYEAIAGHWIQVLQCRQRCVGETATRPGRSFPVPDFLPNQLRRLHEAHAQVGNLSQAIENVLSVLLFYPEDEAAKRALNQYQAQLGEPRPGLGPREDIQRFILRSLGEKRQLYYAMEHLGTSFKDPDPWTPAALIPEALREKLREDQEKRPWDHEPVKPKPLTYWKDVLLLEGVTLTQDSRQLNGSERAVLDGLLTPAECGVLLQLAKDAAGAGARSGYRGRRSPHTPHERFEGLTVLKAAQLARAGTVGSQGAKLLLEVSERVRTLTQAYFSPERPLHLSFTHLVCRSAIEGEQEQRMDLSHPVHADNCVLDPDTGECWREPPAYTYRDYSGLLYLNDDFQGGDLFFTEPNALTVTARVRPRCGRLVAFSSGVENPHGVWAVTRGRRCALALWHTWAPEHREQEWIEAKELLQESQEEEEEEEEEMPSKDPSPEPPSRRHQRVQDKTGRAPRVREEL
To be noted: 100 µM free compound A, HL-60 nuclear lysate, read-out: Fold change versus DMSO control.
Source text: as §1, §2, §3

The next test concerns the target T3, PLOD1 (Homo sapiens, UniProt Q02809).
T3 sequence (Q02809 19-727): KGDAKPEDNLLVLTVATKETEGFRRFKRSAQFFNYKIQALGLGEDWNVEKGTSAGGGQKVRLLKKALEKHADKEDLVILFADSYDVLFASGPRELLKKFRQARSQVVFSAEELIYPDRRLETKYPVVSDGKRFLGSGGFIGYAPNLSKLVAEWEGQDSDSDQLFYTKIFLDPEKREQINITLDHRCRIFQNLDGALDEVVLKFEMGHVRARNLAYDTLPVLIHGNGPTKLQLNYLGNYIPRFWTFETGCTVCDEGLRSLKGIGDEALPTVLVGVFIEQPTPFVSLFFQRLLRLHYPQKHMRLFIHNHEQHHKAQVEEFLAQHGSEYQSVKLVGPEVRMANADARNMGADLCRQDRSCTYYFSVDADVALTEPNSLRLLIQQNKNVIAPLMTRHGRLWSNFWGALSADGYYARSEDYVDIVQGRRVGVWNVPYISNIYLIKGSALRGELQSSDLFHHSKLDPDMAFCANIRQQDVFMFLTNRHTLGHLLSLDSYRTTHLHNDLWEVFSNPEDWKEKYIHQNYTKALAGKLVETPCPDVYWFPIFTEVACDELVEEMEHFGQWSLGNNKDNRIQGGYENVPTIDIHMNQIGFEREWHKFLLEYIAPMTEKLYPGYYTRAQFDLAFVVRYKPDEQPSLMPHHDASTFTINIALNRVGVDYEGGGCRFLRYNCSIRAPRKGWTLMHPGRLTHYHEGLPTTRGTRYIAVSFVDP
To be noted: 100 µM free compound A, HL-60 nuclear lysate, read-out: Fold change versus DMSO control.
Source text: as §1, §2, §3

In a further test the target is T4, PLOD3 (Homo sapiens, UniProt O60568).
T4 sequence (O60568 25-738): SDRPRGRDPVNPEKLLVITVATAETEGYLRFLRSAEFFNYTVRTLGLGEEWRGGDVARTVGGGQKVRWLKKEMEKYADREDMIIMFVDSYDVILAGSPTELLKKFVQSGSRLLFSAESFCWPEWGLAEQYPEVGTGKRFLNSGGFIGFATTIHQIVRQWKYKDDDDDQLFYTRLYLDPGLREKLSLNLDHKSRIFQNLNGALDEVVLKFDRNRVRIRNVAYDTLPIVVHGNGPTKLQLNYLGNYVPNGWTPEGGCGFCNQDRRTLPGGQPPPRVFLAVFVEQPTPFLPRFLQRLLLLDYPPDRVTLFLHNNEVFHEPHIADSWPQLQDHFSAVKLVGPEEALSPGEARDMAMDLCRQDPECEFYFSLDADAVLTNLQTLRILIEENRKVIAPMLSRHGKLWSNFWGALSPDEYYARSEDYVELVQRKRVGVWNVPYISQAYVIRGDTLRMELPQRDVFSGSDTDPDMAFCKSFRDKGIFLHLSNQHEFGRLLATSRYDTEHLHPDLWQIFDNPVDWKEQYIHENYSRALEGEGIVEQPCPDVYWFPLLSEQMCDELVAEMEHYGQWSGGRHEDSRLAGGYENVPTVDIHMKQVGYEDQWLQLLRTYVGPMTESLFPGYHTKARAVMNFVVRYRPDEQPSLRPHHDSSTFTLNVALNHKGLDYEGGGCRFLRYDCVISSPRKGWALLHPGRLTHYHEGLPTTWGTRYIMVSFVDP
To be noted: 100 µM free compound A, HL-60 nuclear lysate, read-out: Fold change versus DMSO control.
Source text: as §1, §2, §3

Counter-ions that a name gives are not always drawn.

Turning to `O=C(O)CNC(=O)C1C(=O)OC2(CCNCC2)OC1=O` [compound A, 2-(2,4-dioxo-1,5-dioxa-9-azaspiro[5.5]undecane-3-carboxamido)acetic acid hydrochloride], the remaining binding at 100 µM on ALKBH3 was found to be 43%; on LEPREL2 it was 20%; on PLOD1, 78%; at PLOD3 it was 112%.
